Columns and labels:
Assay in all cases: ITC; B''-constructs at 20–40 µM in the cell titrated with 200–300 µM Aα or Aβ constructs; 15°C; 20 mM Tris pH 7.5, 200 mM NaCl, 2 mM CaCl2; 1:1 binding model
Details in all cases: both partners purified
PR72 (24–529) = molecular target: T1, PR72 (24–529) (UniProt Q06190-2 24-529)
T1 construct: PR72 (B''α2), regulatory B'' subunit of PP2A, product of PPP2R3A; residues 24–529; the end at 529 fits the PR72 isoform of 529 residues, not PR130; also called PR72 subunit (residue 24–529); B''α2; source: E. coli BL21(DE3), purified (IMAC, TEV cleavage, gel filtration); not shown: His tag, N-terminal, cleaved
T1 sequence (looked up): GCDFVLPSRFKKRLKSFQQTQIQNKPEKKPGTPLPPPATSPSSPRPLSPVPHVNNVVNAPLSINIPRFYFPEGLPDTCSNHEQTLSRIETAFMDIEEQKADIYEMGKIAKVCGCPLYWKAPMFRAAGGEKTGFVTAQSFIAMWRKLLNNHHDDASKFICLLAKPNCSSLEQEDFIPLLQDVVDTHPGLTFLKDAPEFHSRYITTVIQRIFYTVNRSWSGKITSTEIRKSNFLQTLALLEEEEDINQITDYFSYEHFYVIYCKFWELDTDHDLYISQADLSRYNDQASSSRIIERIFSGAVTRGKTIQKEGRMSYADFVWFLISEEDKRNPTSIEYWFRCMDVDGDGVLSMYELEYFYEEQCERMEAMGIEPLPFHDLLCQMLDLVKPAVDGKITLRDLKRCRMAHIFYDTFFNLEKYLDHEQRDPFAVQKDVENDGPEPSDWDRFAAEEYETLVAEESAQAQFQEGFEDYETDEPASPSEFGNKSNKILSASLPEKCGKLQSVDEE

PR70 (25–575) = molecular target: T2, PR70 (25–575) (human, UniProt Q9Y5P8 25-575)
T2 construct: PR70 (B''β), regulatory B'' subunit of PP2A, human, product of PPP2R3B; also called B''/PR70; source: E. coli BL21(DE3), purified (IMAC, TEV cleavage, gel filtration); not shown: His tag, N-terminal, cleaved
T2 sequence (looked up): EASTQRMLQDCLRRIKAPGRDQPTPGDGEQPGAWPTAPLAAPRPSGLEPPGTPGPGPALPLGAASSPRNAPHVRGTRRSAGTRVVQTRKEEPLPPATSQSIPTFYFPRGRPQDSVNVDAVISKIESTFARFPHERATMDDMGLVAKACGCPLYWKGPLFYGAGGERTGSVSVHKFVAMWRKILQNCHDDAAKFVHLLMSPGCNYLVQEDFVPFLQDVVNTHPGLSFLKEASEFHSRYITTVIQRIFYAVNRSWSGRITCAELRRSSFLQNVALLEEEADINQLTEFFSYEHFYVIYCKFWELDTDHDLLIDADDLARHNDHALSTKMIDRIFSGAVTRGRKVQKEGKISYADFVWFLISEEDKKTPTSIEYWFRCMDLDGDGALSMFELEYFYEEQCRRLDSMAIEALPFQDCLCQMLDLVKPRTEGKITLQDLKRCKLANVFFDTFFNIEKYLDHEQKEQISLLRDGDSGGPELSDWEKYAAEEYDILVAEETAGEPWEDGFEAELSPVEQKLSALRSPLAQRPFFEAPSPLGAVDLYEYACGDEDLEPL

PR70 (105–575) = molecular target: T3, PR70 (105–575) (human, UniProt Q9Y5P8 105-575)
T3 construct: PR70 (B''β), regulatory B'' subunit of PP2A, human, product of PPP2R3B; source: E. coli BL21(DE3), purified (IMAC, TEV cleavage, gel filtration); not shown: His tag, N-terminal, cleaved
T3 sequence (looked up): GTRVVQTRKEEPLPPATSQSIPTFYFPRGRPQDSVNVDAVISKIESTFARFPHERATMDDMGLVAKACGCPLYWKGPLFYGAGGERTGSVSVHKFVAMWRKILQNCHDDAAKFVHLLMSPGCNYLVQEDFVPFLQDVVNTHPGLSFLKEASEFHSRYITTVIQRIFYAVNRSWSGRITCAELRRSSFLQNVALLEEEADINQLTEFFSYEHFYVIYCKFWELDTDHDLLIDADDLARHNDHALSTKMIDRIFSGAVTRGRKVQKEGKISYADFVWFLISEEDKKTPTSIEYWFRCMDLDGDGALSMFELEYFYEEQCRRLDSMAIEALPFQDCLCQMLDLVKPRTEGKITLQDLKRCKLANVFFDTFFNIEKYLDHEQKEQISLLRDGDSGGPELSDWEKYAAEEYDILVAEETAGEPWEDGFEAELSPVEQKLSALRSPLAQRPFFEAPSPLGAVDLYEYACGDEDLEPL

dH (PR72 (24–529)): -10.2 ± 0.5 kcal/mol | stoichiometry N (PR72 (24–529)): 0.94 ± 0.01 | dH (PR70 (25–575)): -22.6 ± 0.1 kcal/mol | stoichiometry N (PR70 (25–575)): 0.84 ± 0.02 | dH (PR70 (105–575)): -19.7 ± 0.2 kcal/mol | stoichiometry N (PR70 (105–575)): 0.85 ± 0.03
B1: A α (HEAT1–15) (natural protein)
chain: not shown
notes: PP2A scaffolding subunit A, α isoform, product of PPP2R1A; HEAT repeats 1–15; calculated molecular weight 65.3 kD; also called full length A-subunit; scaffolding A subunit; source: E. coli BL21(DE3), purified (IMAC, TEV cleavage, gel filtration); not shown: His tag, N-terminal, cleaved
